Experimental data reported in patent US20180321224A1, “COMPOSITIONS AND METHODS FOR INCREASING HEPATOCYTE FUNCTIONAL LIFETIME IN VITRO” (Colorado State University Research Foundation, priority 2015, published 2018).

System: primary human hepatocytes in micropatterned co-cultures (MPCCs)
Assay: Hepatotoxicity screening in MPCCs pre-cultured in physiologic medium (urea synthesis)
Details: after 2 treatments over 5 days at 25*Cmax and 100*Cmax, serum free medium; MPCCs pre-cultured in physiologic medium 10 days

SMILES: CN(CCOc1ccc(CC2SC(=O)NC2=O)cc1)c1ccccn1 (stereo not shown) [rosiglitazone]
- Toxicity categorization by urea synthesis in MPCC supernatants (toxic if below 50% of vehicle control): no significant loss in urea synthesis
